The text below walks through data of PubChem BioAssay AID652105 (National Center for Advancing Translational Sciences (NCATS), 2013).

Chains of the proteins cited; added tags and fusions are not shown.
UniProt P48426, whole entry: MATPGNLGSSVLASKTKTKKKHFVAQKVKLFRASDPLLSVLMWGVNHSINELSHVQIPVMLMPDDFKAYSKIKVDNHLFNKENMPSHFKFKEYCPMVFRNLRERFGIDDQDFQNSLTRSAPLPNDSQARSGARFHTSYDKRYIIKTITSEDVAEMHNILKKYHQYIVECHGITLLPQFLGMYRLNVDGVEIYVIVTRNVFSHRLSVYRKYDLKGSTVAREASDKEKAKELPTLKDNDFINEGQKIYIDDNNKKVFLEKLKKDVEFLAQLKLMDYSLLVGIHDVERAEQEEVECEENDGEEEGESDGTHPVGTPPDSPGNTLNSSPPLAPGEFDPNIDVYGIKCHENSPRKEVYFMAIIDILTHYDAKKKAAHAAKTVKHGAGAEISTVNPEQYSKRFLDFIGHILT

The entries are a selection whose mix differs from that of the whole data set. The source made the active and inactive calls. The calls were made as follows: active = max response of -50% or lower; inconclusive = between -30% and -50%; inactive = -30% or higher.
% is scaled to controls: 0 for no effect and ±100 for the full control effect.

In the assay the target is Phosphatidylinositol 5-phosphate 4-kinase type-2 alpha (Homo sapiens) (UniProt P48426). In words: qHTS for Inhibitors of phosphatidylinositol 5-phosphate 4-kinase (PI5P4K). Also: value at the top dose of about 77 µM. The settings on record: PI5P4Kalpha enzyme, ADP-Glo luminescence, 60 min; stronger effect = lower value. From the text:
In addition to finding PI5P, we discovered the type II phosphatidylinositol 5-phosphate 4-kinase (PI5P4K) family (alpha, beta, gamma isoforms) that catalyze the conversion of PI5P to PI(4,5)P2. Alternatively, PI(4,5)P2 can also be synthesized through phosphatidylinositol-4-phosphate (PI4P) by the type I phosphatidylinositol 4-phosphate 5-kinases (PI4P5K). These PI5P4K enzymes therefore represent one way by which cells can regulate endogenous PI5P levels and play important roles in insulin signaling and in stress responses.
This proposal aims to identify and optimize specific modulators of human PI5P4K, phosphatidylinositol-5-phosphate 4-kinase (Type II PIPK), a family of kinases that regulate AKT signaling and tumor cell growth. In this project we aim to identify inhibitors of human PI5P4K using a quantitative high-throughput screening approach against the MLSMR containing ~400,000 small molecules.
NIH Chemical Genomics Center [NCGC] […]
2 microL of PI5P4Kalpha/substrate buffer (columns 1-2, 5-48) are dispensed into Greiner white solid bottom 1536-well assay plates; column 3 receives only PI5P4Kalpha buffer as 0x substrate controls; column 4 receives only substrate buffer as 0x PI5P4Kalpha controls. […] They are then transferred to a ViewLux high-throughput CCD imager (PerkinElmer) wherein single end-point measurements of luminescence are acquired using a clear filter.
As for `CN(C)CCOC(=O)C(O)(c1ccccc1)C1CCCCC1` (stereo unspecified), the max response was inactive: -1.21%.
